Laboratory results from patent publication US7632933B2, “Corticotropin releasing factor 2 receptor agonists” (priority 2002, dated 2009).

Tests used:
CRF1R = molecular target: T1, CRF1R (Homo sapiens, UniProt P34998); assay: CRF1R agonist activity (EC50 and Emax), called comparative CRF binding; format: cell-based; settings: CRF1R EC50 (nM), CRF1R
T1 sequence (P34998 24-415): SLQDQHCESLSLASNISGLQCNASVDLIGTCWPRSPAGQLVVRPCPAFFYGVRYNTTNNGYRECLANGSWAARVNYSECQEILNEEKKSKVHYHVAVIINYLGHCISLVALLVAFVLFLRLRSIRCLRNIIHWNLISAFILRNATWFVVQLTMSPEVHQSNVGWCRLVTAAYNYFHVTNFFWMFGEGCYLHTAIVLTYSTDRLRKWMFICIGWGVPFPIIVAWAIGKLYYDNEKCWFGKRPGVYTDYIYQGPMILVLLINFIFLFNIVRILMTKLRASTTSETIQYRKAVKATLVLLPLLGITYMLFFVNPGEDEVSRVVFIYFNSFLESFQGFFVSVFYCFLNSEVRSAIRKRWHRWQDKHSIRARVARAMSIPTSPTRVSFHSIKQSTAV
Source text: (§1) The pharmacological activity and selectivity of the peptides of present invention can be determined using published test procedures. See, e.g, U.S. patent application Ser. No. 09/799,978. Because CRF2R and CRF1R are homologous proteins, it is expected that a certain proportion of agonists for CRF2R will also function as agonists of CRF1R. As discussed above, activation of CRF1R induces activation of the HPA axis since increased corticosteroid production leads to skeletal muscle atrophy. In most cases in which an increase in muscle mass or function is desired, it is not desirable to activate the HPA axis.
(§2) Because it is desirable to discriminate binding between CRF2R, as compared with CRF1R, the assays described above may be conducted using a cell, or membrane from a cell, which expresses only CRF2R or the assays can be conducted with a recombinant source of CRF2R. Cells expressing both forms of CRFR may be modified using homologous recombination to inactivate or otherwise disable the CRF1R gene. Alternatively, if the source of CRFR contains more than one CRFR type, the background signal produced by the receptor which is not of interest must be subtracted from the signal obtained in the assay. […] Known antagonists of CRFRs include, but are not limited to, antalarmin (CRF1R selective), antisauvagine-30 (CRF2R selective) and astressin (nonselective for CRF1R/CRF2R).
(§3) Cell-based assays include the steps of contacting cells which express CRF1R or CRF2R with a peptide of the present invention or control and measuring activation of the CRFR by measuring the expression or activity of components of the CRFR signal transduction pathways.
(§4) For example, after contact with a peptide of the present invention, lysates of the cells can be prepared and assayed for induction of cAMP. cAMP is induced in response to Gαs activation. Because Gαs is activated by receptors other than CRFR and because a test peptide may be exerting its effect through CRFRs or by another mechanism, two control comparisons are relevant for determining whether the peptide increases levels of cAMP via activation of a CRFR. One control compares the cAMP level of cells contacted with the peptide and the cAMP level of cells contacted with a control compound (i.e., the vehicle in which the peptide is dissolved).
(§5) In one example, cAMP induction is measured with the use of DNA constructs containing the cAMP responsive element linked to any of a variety of reporter genes can be introduced into cells expressing CRFRs. Such reporter genes include, but are not limited to, chloramphenicol acetyltransferase (CAT), luciferase, glucuronide synthetase, growth hormone, fluorescent proteins (e.g., Green Fluorescent Protein), or alkaline phosphatase. Following exposure of the cells to the peptide, the level of reporter gene expression can be quantitated to determine the peptide's ability to increase cAMP levels and thus determine the peptide's ability to activate the CRFR.
(§6) In addition to using cells expressing full length CRFRs, cells can be engineered which express CRFRs containing the ligand binding domain of the receptor coupled to, or physically modified to contain, reporter elements or to interact with signaling proteins. For example, a wild type CRFR or CRFR fragment can be fused to a G-protein resulting in activation of the fused G-protein upon agonist binding to the CRFR portion of the fusion protein. […] In addition, alternative pathways for induction of the CRE reporter could be eliminated to reduce basal levels.

CRF2R = molecular target: T2, CRF2R (Homo sapiens, UniProt Q13324); assay: CRF2R agonist activity (EC50 and Emax), called comparative CRF binding; format: cell-based; settings: CRF2R EC50 (nM), CRF2R
T2 sequence (Q13324 1-411): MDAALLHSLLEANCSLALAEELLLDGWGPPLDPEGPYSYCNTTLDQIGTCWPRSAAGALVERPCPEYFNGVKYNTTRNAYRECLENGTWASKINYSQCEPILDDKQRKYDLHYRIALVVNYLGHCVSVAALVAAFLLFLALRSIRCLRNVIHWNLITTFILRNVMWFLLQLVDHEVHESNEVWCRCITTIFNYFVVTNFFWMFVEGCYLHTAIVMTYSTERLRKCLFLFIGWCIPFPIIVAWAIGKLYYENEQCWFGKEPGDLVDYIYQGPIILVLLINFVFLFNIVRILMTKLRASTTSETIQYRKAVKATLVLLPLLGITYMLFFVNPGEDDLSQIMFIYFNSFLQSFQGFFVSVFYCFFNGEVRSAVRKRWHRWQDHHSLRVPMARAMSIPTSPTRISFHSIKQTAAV
Source text: as §1, §2, §3, §4, §5, §6

SMILES	EC50 (CRF1R) [nM]	EC50 (CRF2R) [nM]
CC[C@H](C)[C@H](NC(=O)[C@H](CCC(=O)O)NC(=O)[C@@H](NC(=O)[C@H](CCSC)NC(=O)[C@H](CCCCN)NC(=O)[C@H](CCCNC(=N)N)NC(=O)[C@H](CC(C)C)NC(=O)[C@H](CC(C)C)NC(=O)[C@H](CCC(N)=O)NC(=O)[C@H](Cc1ccccc1)NC(=O)[C@@H]1CCCN1C(=O)[C@H](CC(C)C)NC(=O)[C@H](CC(=O)O)NC(=O)[C@@H](NC(=O)[C@H](CO)NC(=O)[C@@H](NC(=O)[C@@H]1CCCN1C(=O)[C@@H]1CCCN1C(=O)CNC(=O)[C@@H]1CCC(=O)N1)[C@@H](C)CC)[C@@H](C)CC)[C@@H](C)CC)C(=O)N[C@@H](CCC(=O)O)C(=O)N[C@@H](CCCCN)C(=O)N[C@@H](CCC(N)=O)C(=O)N[C@@H](CCC(=O)O)C(=O)N[C@@H](CCCCN)C(=O)N[C@@H](CCC(=O)O)C(=O)N[C@@H](CCCCN)C(=O)N[C@@H](CCC(N)=O)C(=O)N[C@@H](CCC(N)=O)C(=O)N[C@@H](C)C(=O)N[C@H](C(=O)N[C@H](C(=O)N[C@@H](CC(N)=O)C(=O)N[C@@H](CCCNC(=N)N)C(=O)N[C@@H](CC(C)C)C(=O)N[C@@H](CC(C)C)C(=O)N[C@@H](CC(C)C)C(=O)N[C@@H](C)C(=O)N[C@H](C(=O)N[C@H](C(N)=O)C(C)C)[C@@H](C)O)[C@@H](C)O)[C@@H](C)O [compound 17]	261	10.2
CC[C@H](C)[C@H](NC(=O)[C@@H](NC(=O)[C@H](CC(=O)O)NC(=O)[C@H](CC(C)C)NC(=O)[C@H](CC(C)C)NC(=O)[C@H](CC(C)C)NC(=O)[C@H](CCCNC(=N)N)NC(=O)[C@H](CC(N)=O)NC(=O)[C@H](CC(N)=O)NC(=O)[C@H](C)NC(=O)[C@H](C)NC(=O)[C@H](CCC(N)=O)NC(=O)[C@H](CCC(N)=O)NC(=O)[C@H](CCCCN)NC(=O)[C@H](CCC(=O)O)NC(=O)[C@H](CCCCN)NC(=O)[C@H](CCC(=O)O)NC(=O)[C@H](CCC(N)=O)NC(=O)[C@H](CCCCN)NC(=O)[C@H](CCC(=O)O)NC(=O)[C@@H](NC(=O)[C@H](CCC(=O)O)NC(=O)[C@@H](NC(=O)[C@H](CCSC)NC(=O)[C@H](CCCCN)NC(=O)[C@H](CCCNC(=N)N)NC(=O)[C@H](CC(C)C)NC(=O)[C@H](CC(C)C)NC(=O)[C@H](Cc1ccc(O)cc1)NC(=O)[C@@H]1CCCN1C(=O)[C@@H]1CCCN1C(=O)[C@H](CC(C)C)NC(=O)[C@H](CC(=O)O)NC(=O)[C@@H](NC(=O)[C@H](CO)NC(=O)[C@@H](NC(=O)[C@@H]1CCCN1C(=O)[C@@H]1CCCN1C(=O)CNC(=O)[C@@H]1CCC(=O)N1)[C@@H](C)CC)[C@@H](C)CC)[C@@H](C)CC)[C@@H](C)CC)[C@@H](C)O)C(N)=O [compound 57]	> 100	> 100
CC[C@H](C)[C@H](NC(=O)[C@@H](NC(=O)[C@H](C)NC(=O)[C@H](CC(C)C)NC(=O)[C@H](CC(C)C)NC(=O)[C@H](CC(C)C)NC(=O)[C@H](C)NC(=O)[C@H](CC(N)=O)NC(=O)[C@H](CC(N)=O)NC(=O)[C@H](C)NC(=O)[C@H](C)NC(=O)[C@H](CCC(N)=O)NC(=O)[C@H](CCC(N)=O)NC(=O)[C@H](CCCCN)NC(=O)[C@H](CCC(=O)O)NC(=O)[C@H](CCCCN)NC(=O)[C@H](CCC(=O)O)NC(=O)[C@H](CCC(N)=O)NC(=O)[C@H](CCCCN)NC(=O)[C@H](CCC(=O)O)NC(=O)[C@@H](NC(=O)[C@H](CCC(=O)O)NC(=O)[C@@H](NC(=O)[C@H](CCSC)NC(=O)[C@H](CCCCN)NC(=O)[C@H](CCCNC(=N)N)NC(=O)[C@H](CC(C)C)NC(=O)[C@H](CC(C)C)NC(=O)[C@H](Cc1ccccc1)NC(=O)[C@H](Cc1ccccc1)NC(=O)[C@@H]1CCCN1C(=O)[C@H](CC(C)C)NC(=O)[C@H](CC(=O)O)NC(=O)[C@@H](NC(=O)[C@H](CO)NC(=O)[C@@H](NC(=O)[C@@H]1CCCN1C(=O)[C@@H]1CCCN1C(=O)CNC(=O)[C@@H]1CCC(=O)N1)[C@@H](C)CC)[C@@H](C)CC)[C@@H](C)CC)[C@@H](C)CC)[C@@H](C)O)C(N)=O [compound 319]	106	8.5
CC[C@H](C)[C@H](NC(=O)[C@@H](NC(=O)[C@H](CC(=O)O)NC(=O)[C@H](CC(C)C)NC(=O)[C@H](CC(C)C)NC(=O)[C@H](CC(C)C)NC(=O)[C@H](CCCNC(=N)N)NC(=O)[C@H](CC(N)=O)NC(=O)[C@H](CC(N)=O)NC(=O)[C@H](C)NC(=O)[C@H](C)NC(=O)[C@H](CCC(N)=O)NC(=O)[C@H](CCC(N)=O)NC(=O)[C@H](CCCCN)NC(=O)[C@H](CCC(=O)O)NC(=O)[C@H](CCCCN)NC(=O)[C@H](CCC(=O)O)NC(=O)[C@H](CCC(N)=O)NC(=O)[C@H](CCCCN)NC(=O)[C@H](CCC(=O)O)NC(=O)[C@@H](NC(=O)[C@H](CCC(=O)O)NC(=O)[C@@H](NC(=O)[C@H](CCSC)NC(=O)[C@H](CCCCN)NC(=O)[C@H](CCCNC(=N)N)NC(=O)[C@H](CC(C)C)NC(=O)[C@H](CC(C)C)NC(=O)[C@H](CCC(N)=O)NC(=O)[C@H](Cc1c[nH]cn1)NC(=O)[C@@H]1CCCN1C(=O)[C@H](CC(C)C)NC(=O)[C@H](CC(=O)O)NC(=O)[C@@H](NC(=O)[C@H](CO)NC(=O)[C@@H](NC(=O)[C@@H]1CCCN1C(=O)[C@@H]1CCCN1C(=O)CNC(=O)[C@@H]1CCC(=O)N1)[C@@H](C)CC)[C@@H](C)CC)[C@@H](C)CC)[C@@H](C)CC)[C@@H](C)O)C(N)=O [compound 212]	445	21.3
CC[C@H](C)[C@H](NC(=O)[C@@H](NC(=O)[C@H](CC(=O)O)NC(=O)[C@H](CC(C)C)NC(=O)[C@H](CC(C)C)NC(=O)[C@H](CC(C)C)NC(=O)[C@H](C)NC(=O)[C@H](CC(N)=O)NC(=O)[C@H](CC(N)=O)NC(=O)[C@H](C)NC(=O)[C@H](C)NC(=O)[C@H](CCC(N)=O)NC(=O)[C@H](CCC(N)=O)NC(=O)[C@H](CCCCN)NC(=O)[C@H](CCC(=O)O)NC(=O)[C@H](CCCCN)NC(=O)[C@H](CCC(=O)O)NC(=O)[C@H](CCC(N)=O)NC(=O)[C@H](CCCCN)NC(=O)[C@H](CCC(=O)O)NC(=O)[C@@H](NC(=O)[C@H](CCC(=O)O)NC(=O)[C@@H](NC(=O)[C@@H](NC(=O)[C@H](CCCCN)NC(=O)[C@H](CCCNC(=N)N)NC(=O)[C@H](CC(C)C)NC(=O)[C@H](CC(C)C)NC(=O)[C@H](Cc1ccccc1)NC(=O)[C@H](Cc1ccccc1)NC(=O)[C@@H]1CCCN1C(=O)[C@H](CC(C)C)NC(=O)[C@H](CC(=O)O)NC(=O)[C@@H](NC(=O)[C@H](CO)NC(=O)[C@@H](NC(=O)[C@@H]1CCCN1C(=O)[C@@H]1CCCN1C(=O)CNC(=O)[C@@H]1CCC(=O)N1)[C@@H](C)CC)[C@@H](C)CC)C(C)C)[C@@H](C)CC)[C@@H](C)CC)[C@@H](C)O)C(N)=O [compound 316]	221	10.2
